Test results taken from patent US6936585B2, “Corticotropin releasing factor 2 receptor agonists” (priority 2002, dated 2005).

Key:
CRF1R = target: T1, CRF1R (Homo sapiens, UniProt P34998); assay: CRF1R agonist activation (EC50 / Emax), called comparative CRF binding; assay type: cell-based; conditions: for EC50: CRF1R EC50; for Emax: read-out: CRF1R Emax
T1 sequence (P34998 24-415): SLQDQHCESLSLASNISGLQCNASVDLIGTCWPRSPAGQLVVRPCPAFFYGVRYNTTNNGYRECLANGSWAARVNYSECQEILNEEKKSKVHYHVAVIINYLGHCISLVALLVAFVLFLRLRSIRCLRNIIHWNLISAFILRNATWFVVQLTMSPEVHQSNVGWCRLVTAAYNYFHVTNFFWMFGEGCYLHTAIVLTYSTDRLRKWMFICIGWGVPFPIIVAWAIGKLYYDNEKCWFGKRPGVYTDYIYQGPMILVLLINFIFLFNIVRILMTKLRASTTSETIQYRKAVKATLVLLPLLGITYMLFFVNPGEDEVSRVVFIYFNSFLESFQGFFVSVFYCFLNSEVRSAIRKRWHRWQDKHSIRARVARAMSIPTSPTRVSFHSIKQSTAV
How it was run: (§1)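 Receptor-expressing cells are contacted with test peptide or the vehicle it is dissolved in. Lysates are then assayed for cAMP, or expression of a CRE-coupled reporter is quantitated. Engineered cells carrying receptor-G-protein fusions may replace full-length receptors.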

CRF2R = target: T2, CRF2R (Homo sapiens, UniProt Q13324); assay: CRF2R agonist activation (EC50 / Emax), called comparative CRF binding; assay type: cell-based; conditions: for Emax: read-out: CRF2R Emax
T2 sequence (Q13324 1-411): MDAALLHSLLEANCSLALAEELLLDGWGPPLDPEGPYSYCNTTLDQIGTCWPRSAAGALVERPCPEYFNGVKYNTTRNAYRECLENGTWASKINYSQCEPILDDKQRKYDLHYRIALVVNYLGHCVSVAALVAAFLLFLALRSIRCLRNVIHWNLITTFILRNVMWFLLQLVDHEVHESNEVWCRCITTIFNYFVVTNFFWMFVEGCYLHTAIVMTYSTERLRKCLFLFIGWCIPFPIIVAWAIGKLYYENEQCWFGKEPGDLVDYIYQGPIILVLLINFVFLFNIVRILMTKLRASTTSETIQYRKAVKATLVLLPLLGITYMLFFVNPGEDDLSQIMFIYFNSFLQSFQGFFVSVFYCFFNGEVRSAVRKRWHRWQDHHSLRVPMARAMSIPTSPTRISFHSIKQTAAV
How it was run: as §1

| SMILES | EC50 (CRF1R) | Emax (CRF1R) | EC50 (CRF2R) | Emax (CRF2R) |
| --- | --- | --- | --- | --- |
| CC[C@H](C)[C@H](NC(=O)[C@H](CCC(=O)O)NC(=O)[C@@H](NC(=O)[C@H](CC(C)C)NC(=O)[C@@H](NC(=O)[C@H](CCCNC(=N)N)NC(=O)[C@H](CC(C)C)NC(=O)[C@H](CC(C)C)NC(=O)[C@H](CCC(N)=O)NC(=O)[C@H](Cc1ccccc1)NC(=O)[C@@H]1CCCN1C(=O)[C@H](CC(C)C)NC(=O)[C@H](CC(=O)O)NC(=O)[C@@H](NC(=O)[C@H](CO)NC(=O)[C@@H](NC(=O)[C@@H]1CCCN1C(=O)[C@@H]1CCCN1C(=O)CNC(=O)[C@@H]1CCC(=O)N1)[C@@H](C)CC)[C@@H](C)CC)[C@@H](C)CC)[C@@H](C)CC)C(=O)N[C@@H](CCC(=O)O)C(=O)N[C@@H](CCCCN)C(=O)N[C@@H](CCC(N)=O)C(=O)N[C@@H](CCC(=O)O)C(=O)N[C@@H](CCCCN)C(=O)N[C@@H](CCC(=O)O)C(=O)N[C@@H](CCCCN)C(=O)N[C@@H](CCC(N)=O)C(=O)N[C@@H](CCC(N)=O)C(=O)N[C@@H](C)C(=O)N[C@@H](C)C(=O)N[C@@H](CC(N)=O)C(=O)N[C@@H](CC(N)=O)C(=O)N[C@@H](C)C(=O)N[C@@H](CC(C)C)C(=O)N[C@@H](CC(C)C)C(=O)N[C@@H](CC(C)C)C(=O)N[C@@H](C)C(=O)N[C@H](C(N)=O)[C@@H](C)O [compound 358] | 99 nM | 100% | 5.56 nM | 100% |
| CC[C@H](C)[C@H](NC(=O)[C@@H](NC(=O)[C@H](CC(=O)O)NC(=O)[C@H](CC(C)C)NC(=O)[C@H](CC(C)C)NC(=O)[C@H](CCCNC(=N)N)NC(=O)[C@H](C)NC(=O)[C@H](CC(N)=O)NC(=O)[C@H](CC(N)=O)NC(=O)[C@H](C)NC(=O)[C@H](C)NC(=O)[C@H](CCC(N)=O)NC(=O)[C@H](CCC(N)=O)NC(=O)[C@H](CCCCN)NC(=O)[C@H](CCC(=O)O)NC(=O)[C@H](CCCCN)NC(=O)[C@H](CCC(=O)O)NC(=O)[C@H](CCC(N)=O)NC(=O)[C@H](CCCCN)NC(=O)[C@H](CCC(=O)O)NC(=O)[C@@H](NC(=O)[C@H](CCC(=O)O)NC(=O)[C@@H](NC(=O)[C@@H](NC(=O)[C@H](CCCCN)NC(=O)[C@H](CCCNC(=N)N)NC(=O)[C@H](CC(C)C)NC(=O)[C@H](CC(C)C)NC(=O)[C@H](Cc1c[nH]cn1)NC(=O)[C@H](Cc1ccc(O)cc1)NC(=O)[C@@H]1CCCN1C(=O)[C@@H](NC(=O)[C@H](CC(=O)O)NC(=O)[C@@H](NC(=O)[C@H](CO)NC(=O)[C@@H](NC(=O)[C@@H]1CCCN1C(=O)[C@@H]1CCCN1C(=O)CNC(=O)[C@@H]1CCC(=O)N1)[C@@H](C)CC)[C@@H](C)CC)C(C)C)C(C)C)[C@@H](C)CC)[C@@H](C)CC)[C@@H](C)O)C(N)=O [compound 376] | – | 8% | – | 100% |
| CC[C@H](C)[C@H](NC(=O)[C@@H](NC(=O)[C@H](CC(=O)O)NC(=O)[C@H](CC(C)C)NC(=O)[C@H](CC(C)C)NC(=O)[C@H](CC(C)C)NC(=O)[C@H](CCCNC(=N)N)NC(=O)[C@H](CC(N)=O)NC(=O)[C@H](CC(N)=O)NC(=O)[C@H](C)NC(=O)[C@H](C)NC(=O)[C@H](CCC(N)=O)NC(=O)[C@H](CCC(N)=O)NC(=O)[C@H](CCCCN)NC(=O)[C@H](CCC(=O)O)NC(=O)[C@H](CCCCN)NC(=O)[C@H](CCC(=O)O)NC(=O)[C@H](CCC(N)=O)NC(=O)[C@H](CCCCN)NC(=O)[C@H](CCC(=O)O)NC(=O)[C@@H](NC(=O)[C@H](CCC(=O)O)NC(=O)[C@@H](NC(=O)[C@H](CCSC)NC(=O)[C@H](CCCCN)NC(=O)[C@H](CCCNC(=N)N)NC(=O)[C@H](CC(C)C)NC(=O)[C@H](CC(C)C)NC(=O)[C@H](Cc1ccc(O)cc1)NC(=O)[C@H](CC(=O)O)NC(=O)[C@@H]1CCCN1C(=O)[C@H](CC(C)C)NC(=O)[C@H](CC(=O)O)NC(=O)[C@@H](NC(=O)[C@H](CO)NC(=O)[C@@H](NC(=O)[C@@H]1CCCN1C(=O)[C@@H]1CCCN1C(=O)CNC(=O)[C@@H]1CCC(=O)N1)[C@@H](C)CC)[C@@H](C)CC)[C@@H](C)CC)[C@@H](C)CC)[C@@H](C)O)C(N)=O [compound 54] | – | 10% | – | 11% |
| CC[C@H](C)[C@H](NC(=O)[C@@H](NC(=O)[C@H](CC(=O)O)NC(=O)[C@H](CC(C)C)NC(=O)[C@H](CC(C)C)NC(=O)[C@H](CC(C)C)NC(=O)[C@H](C)NC(=O)[C@H](CC(N)=O)NC(=O)[C@H](CC(N)=O)NC(=O)[C@H](C)NC(=O)[C@H](C)NC(=O)[C@H](CCC(N)=O)NC(=O)[C@H](CCC(N)=O)NC(=O)[C@H](CCCCN)NC(=O)[C@H](CCC(=O)O)NC(=O)[C@H](CCCCN)NC(=O)[C@H](CCC(=O)O)NC(=O)[C@H](CCC(N)=O)NC(=O)[C@H](CCCCN)NC(=O)[C@H](CCC(=O)O)NC(=O)[C@@H](NC(=O)[C@H](CCC(=O)O)NC(=O)[C@@H](NC(=O)[C@H](CCSC)NC(=O)[C@H](CCCCN)NC(=O)[C@H](CCCNC(=N)N)NC(=O)[C@H](CC(C)C)NC(=O)[C@H](CC(C)C)NC(=O)[C@H](CCC(N)=O)NC(=O)[C@H](CC(C)C)NC(=O)[C@@H]1CCCN1C(=O)[C@H](CC(C)C)NC(=O)[C@H](CC(=O)O)NC(=O)[C@@H](NC(=O)[C@H](CO)NC(=O)[C@@H](NC(=O)[C@@H]1CCCN1C(=O)[C@@H]1CCCN1C(=O)CNC(=O)[C@@H]1CCC(=O)N1)[C@@H](C)CC)[C@@H](C)CC)[C@@H](C)CC)[C@@H](C)CC)[C@@H](C)O)C(N)=O [compound 248] | ≥ 1000 nM | 32% | 19.6 nM | 98% |
| CC[C@H](C)[C@H](NC(=O)[C@@H](NC(=O)[C@H](CC(=O)O)NC(=O)[C@H](CC(C)C)NC(=O)[C@H](CC(C)C)NC(=O)[C@H](CC(C)C)NC(=O)[C@H](CCCNC(=N)N)NC(=O)[C@H](CC(N)=O)NC(=O)[C@H](CC(N)=O)NC(=O)[C@H](C)NC(=O)[C@H](C)NC(=O)[C@H](CCC(N)=O)NC(=O)[C@H](CCC(N)=O)NC(=O)[C@H](CCCCN)NC(=O)[C@H](CCC(=O)O)NC(=O)[C@H](CCCCN)NC(=O)[C@H](CCC(=O)O)NC(=O)[C@H](CCC(N)=O)NC(=O)[C@H](CCCCN)NC(=O)[C@H](CCC(=O)O)NC(=O)[C@@H](NC(=O)[C@H](CCC(=O)O)NC(=O)[C@@H](NC(=O)[C@H](CCSC)NC(=O)[C@H](CCCCN)NC(=O)[C@H](CCCNC(=N)N)NC(=O)[C@H](CC(C)C)NC(=O)[C@H](CC(C)C)NC(=O)[C@H](Cc1ccc(O)cc1)NC(=O)[C@@H](NC(=O)[C@@H]1CCCN1C(=O)[C@H](CC(C)C)NC(=O)[C@H](CC(=O)O)NC(=O)[C@@H](NC(=O)[C@H](CO)NC(=O)[C@@H](NC(=O)[C@@H]1CCCN1C(=O)[C@@H]1CCCN1C(=O)CNC(=O)[C@@H]1CCC(=O)N1)[C@@H](C)CC)[C@@H](C)CC)[C@@H](C)O)[C@@H](C)CC)[C@@H](C)CC)[C@@H](C)O)C(N)=O [compound 70] | > 100 nM | 8% | 18.3 nM | 82% |
| CC[C@H](C)[C@H](NC(=O)[C@@H](NC(=O)[C@H](CC(=O)O)NC(=O)[C@H](CC(C)C)NC(=O)[C@H](CC(C)C)NC(=O)[C@H](CC(C)C)NC(=O)[C@H](CCCNC(=N)N)NC(=O)[C@H](CC(N)=O)NC(=O)[C@H](CC(N)=O)NC(=O)[C@H](C)NC(=O)[C@H](C)NC(=O)[C@H](CCC(N)=O)NC(=O)[C@H](CCC(N)=O)NC(=O)[C@H](CCCCN)NC(=O)[C@H](CCC(=O)O)NC(=O)[C@H](CCCCN)NC(=O)[C@H](CCC(=O)O)NC(=O)[C@H](CCC(N)=O)NC(=O)[C@H](CCCCN)NC(=O)[C@H](CCC(=O)O)NC(=O)[C@@H](NC(=O)[C@H](CCC(=O)O)NC(=O)[C@@H](NC(=O)[C@H](CCSC)NC(=O)[C@H](CCCCN)NC(=O)[C@H](CCCNC(=N)N)NC(=O)[C@H](CC(C)C)NC(=O)[C@H](CC(C)C)NC(=O)[C@H](Cc1ccc(O)cc1)NC(=O)[C@H](CCC(N)=O)NC(=O)[C@@H]1CCCN1C(=O)[C@H](CC(C)C)NC(=O)[C@H](CC(=O)O)NC(=O)[C@@H](NC(=O)[C@H](CO)NC(=O)[C@@H](NC(=O)[C@@H]1CCCN1C(=O)[C@@H]1CCCN1C(=O)CNC(=O)[C@@H]1CCC(=O)N1)[C@@H](C)CC)[C@@H](C)CC)[C@@H](C)CC)[C@@H](C)CC)[C@@H](C)O)C(N)=O [compound 27] | – | 100% | – | 96% |
